Source: patent US20150368338A1 (Janssen / Centocor, published 2015)

T1: IFN-αF (human, UniProt P01568 24-189)
T1 construct: also called IFN-α21; alpha F
T1 chain: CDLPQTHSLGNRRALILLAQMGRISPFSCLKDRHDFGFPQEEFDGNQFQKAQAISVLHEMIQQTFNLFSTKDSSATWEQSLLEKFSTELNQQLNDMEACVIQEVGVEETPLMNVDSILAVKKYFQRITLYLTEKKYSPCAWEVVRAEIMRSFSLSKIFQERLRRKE


What was measured:
IFN-αB2 [1] = target: T2, IFN-αB2 (human, UniProt P32881 24-189); test: ProteOn SPR, cell supernatant;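 note: each binding measurement used just a single antigen concentration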
T2 construct: Recombinant, HEK293; also called IFN-α8

IFN-αB2 [2] = target: T2, IFN-αB2; test: cell-based or functional assay
IFN-αB2 [3] = target: IFN-αB2 (human, UniProt P32881 24-189); test: cell-based or functional assay; remark: listed apart in the source
IFN-αB2 [4] = target: T3, IFN-αB2 (human, UniProt P32881 24-189); test: ProteOn, one antigen concentration
T3 construct: also called IFN-α8; IFN alpha B2

IFN-αF = target: T1, IFN-αF; test: ProteOn, one antigen concentration
IFN-αC = target: T4, IFN-αC (human, UniProt P01566 24-189); test: ProteOn, one antigen concentration
T4 construct: also called IFN-α10; alpha C

| Binder | Kd (IFN-αB2 [1]) | IC50, ISRE assay (IFN-αB2 [2]) | also measured |
| --- | --- | --- | --- |
| IFWM3385 (antibody, IgG1, V domains shown, mAb; IgG1/kappa said of the parent and of selected mAbs; also called IFWB3120) VH: EVQLVQSGAEVKKPGESLKISCKGSGYSFTSYWIGWVRQMPGKGLEWMGIIDPSDSDTRYSPSFQGQVTISADKSISTAYLQWSSLKASDTAMYYCARHPGLAWAPDFDYWGQGTLVTVSS VL: DIQMTQSPSSLSASVGDRVTITCRASQSIGDFLNWYQQKPGKAPKLLIYFASSLQSGVPSRFSGSGSGTDFTLTISSLQPEDFATYYCQQALDFPLTFGQGTKVEIK | 0.019 nM | 0.158 nM |  |
| IFWM3405 (antibody, IgG1, V domains shown, mAb; IgG1/kappa said of the parent and of selected mAbs; also called IFWB3140) VH: EVQLVQSGAEVKKPGESLKISCKGSGYSFTSYWIGWVRQMPGKGLEWMGIIDPSDSDTRYSPSFQGQVTISADKSISTAYLQWSSLKASDTAMYYCARHPGLAWAPDFDYWGQGTLVTVSS VL: DIQMTQSPSSLSASVGDRVTITCRASQSIANNNLNWYQQKPGKAPKLLIHWASSLQSGVPSRFSGSGSGTDFTLTISSLQPEDFATYYCQQGYDTPFTFGQGTKVEIK | 0.017 nM | 0.099 nM |  |
| IFWM3308 (antibody, IgG1, V domains shown) VH: EVQLVQSGAEVKKPGESLKISCKGSGYSFTSYWIGWVRQMPGKGLEWMGIIDPSDSDTRYSPSFQGQVTISADKSISTAYLQWSSLKASDTAMYYCARHPGLNWAPDFDYWGQGTLVTVSS VL: DIQMTQSPSSLSASVGDRVTITCRASQSIAEFLNWYQQKPGKAPKLLIYFASSLQSGVPSRFSGSGSGTDFTLTISSLQPEDFATYYCQQSIDFPLTFGQGTKVEIK |  | 0.23 nM |  |
| IFWM3310 (antibody, IgG1, V domains shown) VH: EVQLVQSGAEVKKPGESLKISCKGSGYSFTSYWIGWVRQMPGKGLEWMGIIDPSDSDTRYSPSFQGQVTISADKSISTAYLQWSSLKASDTAMYYCARHPGLNWAPDFDYWGQGTLVTVSS VL: DIQMTQSPSSLSASVGDRVTITCRASQSIGKSLNWYQQKPGKAPKLLIYFASSLQSGVPSRFSGSGSGTDFTLTISSLQPEDFATYYCQQSYDFPLTFGQGTKVEIK |  | 0.043 nM |  |
| IFWM3314 (antibody, IgG1, V domains shown) VH: EVQLVQSGAEVKKPGESLKISCKGSGYSFTSYWIGWVRQMPGKGLEWMGIIDPSDSDTRYSPSFQGQVTISADKSISTAYLQWSSLKASDTAMYYCARHPGLNWAPDFDYWGQGTLVTVSS VL: DIQMTQSPSSLSASVGDRVTITCRASQSIDRALNWYQQKPGKAPKLLIYFASSLQSGVPSRFSGSGSGTDFTLTISSLQPEDFATYYCQQSFDFPLTFGQGTKVEIK |  | 0.033 nM |  |
| IFWM3320 (antibody, IgG1, V domains shown) VH: EVQLVQSGAEVKKPGESLKISCKGSGYSFTSYWIGWVRQMPGKGLEWMGIIDPSDSDTRYSPSFQGQVTISADKSISTAYLQWSSLKASDTAMYYCARHPGLNWAPDFDYWGQGTLVTVSS VL: DIQMTQSPSSLSASVGDRVTITCRASQSINGVLNWYQQKPGKAPKLLIYFASSLQSGVPSRFSGSGSGTDFTLTISSLQPEDFATYYCQQSHDFPLTFGQGTKVEIK |  | 0.018 nM |  |
| IFWM3321 (antibody, IgG1, V domains shown) VH: EVQLVQSGAEVKKPGESLKISCKGSGYSFTSYWIGWVRQMPGKGLEWMGIIDPSDSDTRYSPSFQGQVTISADKSISTAYLQWSSLKASDTAMYYCARHPGLNWAPDFDYWGQGTLVTVSS VL: DIQMTQSPSSLSASVGDRVTITCRASQSIDGALNWYQQKPGKAPKLLIYFASSLQSGVPSRFSGSGSGTDFTLTISSLQPEDFATYYCQQAYDFPLTFGQGTKVEIK |  | 0.087 nM |  |
| IFWM3322 (antibody, IgG1, V domains shown) VH: EVQLVQSGAEVKKPGESLKISCKGSGYSFTSYWIGWVRQMPGKGLEWMGIIDPSDSDTRYSPSFQGQVTISADKSISTAYLQWSSLKASDTAMYYCARHPGLNWAPDFDYWGQGTLVTVSS VL: DIQMTQSPSSLSASVGDRVTITCRASQSIADFLNWYQQKPGKAPKLLIYFASSLQSGVPSRFSGSGSGTDFTLTISSLQPEDFATYYCQQSHSFPLTFGQGTKVEIK |  | 0.121 nM |  |
| IFWM3328 (antibody, IgG1, V domains shown) VH: EVQLVQSGAEVKKPGESLKISCKGSGYSFTSYWIGWVRQMPGKGLEWMGIIDPSDSDTRYSPSFQGQVTISADKSISTAYLQWSSLKASDTAMYYCARHPGLNWAPDFDYWGQGTLVTVSS VL: DIQMTQSPSSLSASVGDRVTITCRASQSINNLNWYQQKPGKAPKLLIYWASSLQSGVPSRFSGSGSGTDFTLTISSLQPEDFATYYCQQGYDTPFTFGQGTKVEIK |  | 0.52 nM |  |
| IFWM3331 (antibody, IgG1, V domains shown) VH: EVQLVQSGAEVKKPGESLKISCKGSGYSFTSYWIGWVRQMPGKGLEWMGIIDPSDSDTRYSPSFQGQVTISADKSISTAYLQWSSLKASDTAMYYCARHPGLNWAPDFDYWGQGTLVTVSS VL: DIQMTQSPSSLSASVGDRVTITCRASQSIDNSYLNWYQQKPGKAPKLLIYGASSLQSGVPSRFSGSGSGTDFTLTISSLQPEDFATYYCQQGWDWPLTFGQGTKVEIK |  | 0.08 nM |  |
| IFWM3525 (antibody, IgG1, V domains shown) VH: EVQLVQSGAEVKKPGESLKISCKGSGYSFTSYWIGWVRQMPGKGLEWMGIIDPSDSDTRYSPSFQGQVTISADKSISTAYLQWSSLKASDTAMYYCARHPGLNWAPDFDYWGQGTLVTVSS VL: DIQMTQSPSSLSASVGDRVTITCRASQSIDNSYLNWYQQKPGKAPKLLIYGASSLQSGVPSRFSGSGSGTDFTLTISSLQPEDFATYYCQQGYDFPLTFGQGTKVEIK |  |  | IC50, ISRE reporter gene assay (IFN-αB2 [3]): 0.025 nM |
| IFWM3522 (antibody, IgG1, V domains shown) VH: EVQLVQSGAEVKKPGESLKISCKGSGYSFTSYWIGWVRQMPGKGLEWMGIIDPSDSDTRYSPSFQGQVTISADKSISTAYLQWSSLKASDTAMYYCARHPGLNWAPDFDYWGQGTLVTVSS VL: DIQMTQSPSSLSASVGDRVTITCRASQSIEGALNWYQQKPGKAPKLLIYFASSLQSGVPSRFSGSGSGTDFTLTISSLQPEDFATYYCQQAYDFPLTFGQGTKVEIK |  |  | IC50, ISRE reporter gene assay (IFN-αB2 [3]): 0.096 nM |
| IFWM3307 (antibody, V domains shown, VH IFWH591, VL IFWL1001; converted mAb; also called IFWB3042) VH: EVQLVQSGAEVKKPGESLKISCKGSGYSFTSYWIGWVRQMPGKGLEWMGIIDPSDSDTRYSPSFQGQVTISADKSISTAYLQWSSLKASDTAMYYCARHPGLNWAPDFDYWGQGTLVTVSS VL: DIQMTQSPSSLSASVGDRVTITCRASQSIGDFLNWYQQKPGKAPKLLIYFASSLQSGVPSRFSGSGSGTDFTLTISSLQPEDFATYYCQQALDFPLTFGQGTKVEIK |  |  | Kd (IFN-αB2 [4]): 0.055 nM; Kd (IFN-αF): 0.055 nM |
| IFWM3312 (antibody, V domains shown, VH IFWH591, VL IFWL1010; converted mAb; also called IFWB3047) VH: EVQLVQSGAEVKKPGESLKISCKGSGYSFTSYWIGWVRQMPGKGLEWMGIIDPSDSDTRYSPSFQGQVTISADKSISTAYLQWSSLKASDTAMYYCARHPGLNWAPDFDYWGQGTLVTVSS VL: DIQMTQSPSSLSASVGDRVTITCRASQSIDGALNWYQQKPGKAPKLLIYFASSLQSGVPSRFSGSGSGTDFTLTISSLQPEDFATYYCQQSFDFPLTFGQGTKVEIK |  |  | Kd (IFN-αC): 0.022 nM; Kd (IFN-αB2 [4]): 0.022 nM |
| IFWM3313 (antibody, V domains shown, VH IFWH591, VL IFWL1013; converted mAb; also called IFWB3048) VH: EVQLVQSGAEVKKPGESLKISCKGSGYSFTSYWIGWVRQMPGKGLEWMGIIDPSDSDTRYSPSFQGQVTISADKSISTAYLQWSSLKASDTAMYYCARHPGLNWAPDFDYWGQGTLVTVSS VL: DIQMTQSPSSLSASVGDRVTITCRASQSINNFLNWYQQKPGKAPKLLIYFASSLQSGVPSRFSGSGSGTDFTLTISSLQPEDFATYYCQQSFNLPITFGQGTKVEIK |  |  | Kd (IFN-αC): 0.074 nM; Kd (IFN-αB2 [4]): 0.074 nM |
| IFWM3323 (antibody, V domains shown, VH IFWH591, VL IFWL1053; converted mAb; also called IFWB3058) VH: EVQLVQSGAEVKKPGESLKISCKGSGYSFTSYWIGWVRQMPGKGLEWMGIIDPSDSDTRYSPSFQGQVTISADKSISTAYLQWSSLKASDTAMYYCARHPGLNWAPDFDYWGQGTLVTVSS VL: DIQMTQSPSSLSASVGDRVTITCRASQSITNHLNWYQQKPGKAPKLLIYFASSLQSGVPSRFSGSGSGTDFTLTISSLQPEDFATYYCQQAHNFPLTFGQGTKVEIK |  |  | Kd (IFN-αC): 0.077 nM; Kd (IFN-αB2 [4]): 0.077 nM |

More lines, main results first:

| Kd (IFN-αB2 [1]) | IC50, ISRE assay (IFN-αB2 [2]) | Binder | also measured |
| --- | --- | --- | --- |
| 0.036 nM | 0.062 nM | IFWM3399 (antibody, IgG1, V domains shown, mAb; IgG1/kappa said of the parent and of selected mAbs; also called IFWB3134) VH: EVQLVQSGAEVKKPGESLKISCKGSGYSFTSYWIGWVRQMPGKGLEWMGIIDPSDSDTRYSPSFQGQVTISADKSISTAYLQWSSLKASDTAMYYCARHPGLAWAPDFDYWGQGTLVTVSS VL: DIQMTQSPSSLSASVGDRVTITCRASQSIDGALNWYQQKPGKAPKLLIYFASSLQSGVPSRFSGSGSGTDFTLTISSLQPEDFATYYCQQAYDFPLTFGQGTKVEIK |  |
| 0.032 nM | 0.086 nM | IFWM3400 (antibody, IgG1, V domains shown, mAb; IgG1/kappa said of the parent and of selected mAbs; also called IFWB3135) VH: EVQLVQSGAEVKKPGESLKISCKGSGYSFTSYWIGWVRQMPGKGLEWMGIIDPSDSDTRYSPSFQGQVTISADKSISTAYLQWSSLKASDTAMYYCARHPGLAWAPDFDYWGQGTLVTVSS VL: DIQMTQSPSSLSASVGDRVTITCRASQSIADFLNWYQQKPGKAPKLLIYFASSLQSGVPSRFSGSGSGTDFTLTISSLQPEDFATYYCQQSHSFPLTFGQGTKVEIK |  |
| 0.059 nM | 0.211 nM | IFWM3410 (antibody, IgG1, V domains shown, mAb; IgG1/kappa said of the parent and of selected mAbs; also called IFWB3145) VH: EVQLVQSGAEVKKPGESLKISCKGSGYSFTSYWIGWVRQMPGKGLEWMGIIDPSDSDTRYSPSFQGQVTISADKSISTAYLQWSSLKASDTAMYYCARHPGLAWAPDFDYWGQGTLVTVSS VL: DIQMTQSPSSLSASVGDRVTITCRASQSIANTNLNWYQQKPGKAPKLLIHWASSLQSGVPSRFSGSGSGTDFTLTISSLQPEDFATYYCQQWYDNPLTFGQGTKVEIK |  |
| 0.037 nM | 0.25 nM | IFWM3416 (antibody, IgG1, V domains shown, mAb; IgG1/kappa said of the parent and of selected mAbs; also called IFWB3151) VH: EVQLVQSGAEVKKPGESLKISCKGSGYSFTSYWIGWVRQMPGKGLEWMGIIDPSDSDTRYSPSFQGQVTISADKSISTAYLQWSSLKASDTAMYYCARHPGLAWAPDFDYWGQGTLVTVSS VL: DIQMTQSPSSLSASVGDRVTITCRASQSIRNTNLNWYQQKPGKAPKLLIHWASSLQSGVPSRFSGSGSGTDFTLTISSLQPEDFATYYCQQGYDTPFTFGQGTKVEIK |  |
